Results on one substance are retold here after patent publication US7132506B2, “Peptide having osteogenetic activity and osteogenetic accelerator containing the same” (Kyocera Corporation, priority 2001, dated 2006).

In this data set the test system is C3H10T1/2 cell strain. Description: Induction of alkali phosphatase activity in C3H10T1/2 cell strain. Type of data set: cell-based, mouse. The settings on record: 50 ng human recombinant BMP-2 added per well; three days of incubation; blank wells 0.24±0.11. The method, then:
Undifferentiated mouse mesenchymal cell strain C3H10T1/2 (purchased from Dai-Nippon Seiyaku KK, Japan) was dispersed in Eagle's MEM medium containing 10% of fetal bovine serum in a cell concentration of 3.75×10^4 cells/mL, and thus a cell culture liquid was prepared. The cell culture liquid was distributed by 100 μL in each well of the 96-hole plates, on which the peptides of Examples 1 to 5, 200 μg each, had been solidified by air drying, and incubated at 37° C. in the presence of 5% CO2.
As a control, the cells are distributed in the same number into wells without any peptide solidified, and thereafter 50 ng of human recombinant BMP-2 (R&D Systems, Inc.) were added. Also blank wells were prepared to which neither human recombinant BMP-2 nor the solidified peptides were added.
Three days after the start of incubation, a culture supernatant was removed, and the wells were washed once with phosphate buffer (PBS: 10 mM, containing 0.15 M of common salt, pH 7.4). To each well of the 96-hole plates, 100 μL of Tris buffer (20 mM, pH 8.5) containing 1% Triton X-100 was added and allowed to stand for 30 minutes to dissolve cells. […] Increase in absorbency at 405 nm was measured to determine the alkaline phosphatase activity in the cell solution. The concentration of protein in the cell solution was also determined using a BCA assay kit (produced by Pierce).

In the case of “human recombinant BMP-2: human recombinant BMP-2 (R&D Systems, Inc.), used as a control [reference compound]”, the alkaline phosphatase activity stood at 1.7±0.4 nmol/min·mg-protein.
